Data reported in the CheMixHub ionic liquid set.

Test: xn = mol fraction of the nth substance listed
Conditions: 100 kPa

CCC[N+](CCC)(CCC)CCC.[Br-] + CCCCCCCCCCCC[N+](C)(C)C.[Br-] + O
viscosity [mPa·s]
Conditions	x2 = 5.419e-05, x1 = 0.0001802	x2 = 0.0001084, x1 = 0.0001801	x2 = 0.0001626, x1 = 0.0001801	x2 = 0.0002167, x1 = 0.0001801	x2 = 0.0002709, x1 = 0.0001801	x2 = 0.0003251, x1 = 0.0001801	x2 = 0.0003792, x1 = 0.0001801	x2 = 0.0004334, x1 = 0.0001801	x2 = 0.0004875, x1 = 0.0001801	x2 = 0.0005416, x1 = 0.0001801
293.15 K	1.037	1.038	1.04	1.041	1.042	1.043	1.044	1.044	1.044	1.044
298.15 K	0.929	0.932	0.933	0.933	0.934	0.934	0.934	0.935	0.935	0.935
303.15 K	0.822	0.822	0.824	0.824	0.825	0.825	0.825	0.825	0.826	0.826
308.15 K	0.74	0.741	0.743	0.743	0.744	0.744	0.744	0.745	0.745	0.745
313.15 K	0.673	0.675	0.676	0.677	0.677	0.678	0.678	0.678	0.678	0.678
318.15 K	0.618	0.62	0.621	0.621	0.622	0.622	0.622	0.622	0.622	0.622
